According to PMC3726442, “Relationship between Genotypes Sult1a2 and Cyp2d6 and Tamoxifen Metabolism in Breast Cancer Patients” (PLoS ONE, 2013):

Test: Plasma concentrations of tamoxifen and its metabolites in breast cancer patients on tamoxifen, by HPLC-tandem mass spectrometry

**Q.** Which “mean plasma concentration (±SD)” value (all samples analyzed, n = 125, before daily 20 mg TAM dose) does the source give for 4-hydroxy-tamoxifen [4-OH-tamoxifen] here?
**A.** 9.01 ± 7.13 ng/mL

**Q.** What about the “plasma concentration, mean ±SD” value (genotype SULT1A1 *2/*2, n = 15) of the same substance?
**A.** 9.20 ± 6.80 ng/mL

**Q.** What about the “plasma concentration, median” value (genotype SULT1A1 *2/*2, n = 15) of the same substance?
**A.** 8.20 ng/mL

**Q.** And the “plasma concentration, range” value (genotype SULT1A1 *2/*2, n = 15)?
**A.** (1.47–29.54) ng/mL

**Q.** And the “plasma concentration, mean ±SD” value (genotype SULT1A1 wt/*2, n = 46)?
**A.** 9.85 ± 7.17 ng/mL

**Q.** What about the “plasma concentration, median” value (genotype SULT1A1 wt/*2, n = 46) of the same substance?
**A.** 7.98 ng/mL

**Q.** And the “plasma concentration, mean ±SD” value (genotype SULT1A1 wt/wt, n = 60)?
**A.** 8.44 ± 7.30 ng/mL

**Q.** And the “plasma concentration, median” value (genotype SULT1A1 wt/wt, n = 60)?
**A.** 6.40 ng/mL

**Q.** And the “plasma concentration, mean ±SD” value (genotype SULT1A2 *2/*2, n = 16)?
**A.** 9.00 ± 6.94 ng/mL

**Q.** What about the “plasma concentration, median” value (genotype SULT1A2 *2/*2, n = 16) of the same substance?
**A.** 7.52 ng/mL

**Q.** And the “plasma concentration, range” value (genotype SULT1A2 *2/*2, n = 16)?
**A.** (2.42–29.54) ng/mL

**Q.** What about the “plasma concentration, median” value (genotype SULT1A2 *2/*3, n = 13) of the same substance?
**A.** 11.20 ng/mL

**Q.** What about the “plasma concentration, range” value (genotype SULT1A2 *2/*3, n = 13) of the same substance?
**A.** (3.25–28.84) ng/mL

**Q.** And the “plasma concentration, mean ±SD” value (genotype SULT1A2 *3/*3, n = 5)?
**A.** 7.85 ± 5.18 ng/mL

**Q.** And the “plasma concentration, range” value (genotype SULT1A2 *3/*3, n = 5)?
**A.** (3.25–16.45) ng/mL

**Q.** And the “plasma concentration, mean ±SD” value (genotype SULT1A2 wt/*2, n = 33)?
**A.** 11.38 ± 9.34 ng/mL

**Q.** And the “plasma concentration, median” value (genotype SULT1A2 wt/*2, n = 33)?
**A.** 7.62 ng/mL

**Q.** What about the “plasma concentration, range” value (genotype SULT1A2 wt/*2, n = 33) of the same substance?
**A.** (2.12–35.90) ng/mL

**Q.** What about the “plasma concentration, mean ±SD” value (genotype SULT1A2 wt/*3, n = 16) of the same substance?
**A.** 8.66 ± 7.13 ng/mL

**Q.** What about the “plasma concentration, median” value (genotype SULT1A2 wt/*3, n = 16) of the same substance?
**A.** 7.20 ng/mL

**Q.** And the “plasma concentration, range” value (genotype SULT1A2 wt/*3, n = 16)?
**A.** (1.06–26.98) ng/mL

**Q.** What about the “plasma concentration, mean ±SD” value (genotype SULT1A2 wt/wt, n = 38) of the same substance?
**A.** 6.02 ± 3.28 ng/mL

**Q.** And the “plasma concentration, median” value (genotype SULT1A2 wt/wt, n = 38)?
**A.** 5.70 ng/mL

**Q.** What about the “plasma concentration, range” value (genotype SULT1A2 wt/wt, n = 38) of the same substance?
**A.** (1.47–14.95) ng/mL

**Q.** And the “plasma concentration, mean ±SD” value (genotype SULT1E1 *2/*2, n = 5)?
**A.** 5.91 ± 1.98 ng/mL

**Q.** And the “plasma concentration, median” value (genotype SULT1E1 *2/*2, n = 5)?
**A.** 5.70 ng/mL

**Q.** What about the “plasma concentration, range” value (genotype SULT1E1 *2/*2, n = 5) of the same substance?
**A.** (3.20–8.71) ng/mL

**Q.** And the “plasma concentration, mean ±SD” value (genotype SULT1E1 wt/*2, n = 28)?
**A.** 8.67 ± 6.39 ng/mL

**Q.** And the “plasma concentration, median” value (genotype SULT1E1 wt/*2, n = 28)?
**A.** 6.20 ng/mL

**Q.** What about the “plasma concentration, range” value (genotype SULT1E1 wt/*2, n = 28) of the same substance?
**A.** (2.87–29.54) ng/mL

**Q.** What about the “plasma concentration, mean ±SD” value (genotype SULT1E1 wt/wt, n = 88) of the same substance?
**A.** 9.40 ± 7.55 ng/mL
